Data taken from paper PMC6292454 (Biochemical Journal, 2018).

Target: NA2009wt (recombinant neuraminidase) (Influenza A virus, UniProt C3W6G3)
Assay: biochemical
Type: binding, A/California/07/2009 (H1N1) influenza virus

CCC(CC)O[C@@H]1C=C(C(=O)O)C[C@H](N)[C@H]1NC(C)=O [compound 4, oseltamivir carboxylate, reference compound]
Ki: 31 ± 6 nM
